Measurements reported in patent US10053431B2, “Tetrahydro-benzodiazepinones” (priority 2013, dated 2018).
Where a name gives a salt, the structure may show the parent alone.

Chains of the proteins cited; added tags and fusions are not shown. A line that says so, or that is headed by a name, gives the form on record, which may keep a tag or linker. Residues count along the entry.
UniProt P98170, 241-356 with tags or gaps limits assumed: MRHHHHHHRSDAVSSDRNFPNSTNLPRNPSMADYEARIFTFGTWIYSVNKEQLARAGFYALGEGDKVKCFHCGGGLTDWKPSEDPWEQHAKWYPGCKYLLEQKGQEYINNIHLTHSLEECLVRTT
UniProt P98170, 124-240 with tags or gaps C202A/C213G limits assumed: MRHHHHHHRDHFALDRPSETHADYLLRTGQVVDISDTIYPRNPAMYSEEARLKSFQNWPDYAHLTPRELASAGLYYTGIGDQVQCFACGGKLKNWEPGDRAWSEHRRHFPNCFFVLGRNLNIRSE

Experiments:
BIR3 domain of XIAP = BIR3 domain of XIAP (Homo sapiens (Human), UniProt P98170); test: TR-FRET assay for BIR3 (inhibition of binding of XIAP BIR3 domain to SMAC-derived Peptide A); details: read-out: IC50 BIR3; 6x His-tagged BIR3 domain (aa 241-356 of XIAP) 10 nM, Peptide A 20 nM, TR-FRET
BIR2 domain of XIAP = BIR2 domain of XIAP (Homo sapiens (Human), UniProt P98170, C202A/C213G); test: TR-FRET assay for BIR2 (inhibition of binding of XIAP BIR2 domain to SMAC-derived Peptide A); details: 6x His-tagged BIR2 domain (aa 124-240 of XIAP) 10 nM, Peptide A 20 nM

Row | Structure (SMILES) | IC50 (BIR3 domain of XIAP) [nM] | IC50 (BIR2 domain of XIAP) [nM]
1 | CCN[C@@H](C)C(=O)N[C@H]1CN(C(=O)CS(C)(=O)=O)c2ccccc2N(Cc2c(OC)ccc3c(Br)cccc23)C1=O [Example 156, (S)-N-((S)-1-((5-bromo-2-methoxynaphthalen-1-yl)methyl)-5-(2-(methylsulfonyl)acetyl)-2-oxo-2,3,4,5-tetrahydro-1H-benzo[b][1,4]diazepin-3-yl)-2-(ethylamino)propanamide hydrochloride] | > 54800 | 42.9
2 | CCN[C@@H](CC)C(=O)N[C@H]1CN(C(=O)CS(C)(=O)=O)c2ccccc2N(Cc2c(OC)ccc3cc(Br)ccc23)C1=O [Example 157, (S)-N-((S)-1-((6-bromo-2-methoxynaphthalen-1-yl)methyl)-5-(2-(methylsulfonyl)acetyl)-2-oxo-2,3,4,5-tetrahydro-1H-benzo[b][1,4]diazepin-3-yl)-2-(ethylamino)butanamide hydrochloride] | > 54800 | 19.4
3 | CN[C@@H](C)C(=O)N[C@H]1CN(C(=O)c2ccc(F)cc2)c2cc(C#N)ccc2N(Cc2nn(-c3ccccc3C#N)c3ccccc23)C1=O [Example 163, (S)-N-((S)-7-cyano-1-((1-(2-cyanophenyl)-1H-indazol-3-yl)methyl)-5-(4-fluorobenzoyl)-2-oxo-2,3,4,5-tetrahydro-1H-benzo[b][1,4]diazepin-3-yl)-2-(methylamino)propanamide hydrochloride] | > 54800 | 17.2
4 | CN[C@@H](C)C(=O)N[C@H]1CN(C(=O)CS(C)(=O)=O)c2cc(C#N)ccc2N(Cc2nn(C)c3ccccc23)C1=O [Example 164, (S)-N-((S)-7-cyano-1-((1-methyl-1H-indazol-3-yl)methyl)-5-(2-(methylsulfonyl)acetyl)-2-oxo-2,3,4,5-tetrahydro-1H-benzo[b][1,4]diazepin-3-yl)-2-(methylamino)propanamide hydrochloride] | > 54800 | 103
5 | CN[C@@H](C)C(=O)N[C@H]1CN(C(=O)CS(C)(=O)=O)c2cc(C#N)ccc2N(Cc2c(C)ccc3ccccc23)C1=O [Example 165, (S)-N-((S)-7-cyano-1-((2-methylnaphthalen-1-yl)methyl)-5-(2-(methylsulfonyl)acetyl)-2-oxo-2,3,4,5-tetrahydro-1H-benzo[b][1,4]diazepin-3-yl)-2-(methylamino)propanamide hydrochloride] | > 54800 | 59.2
6 | CN[C@@H](C)C(=O)N[C@H]1CN(C(=O)CS(C)(=O)=O)c2ccc(C#N)cc2N(Cc2nn(-c3ccccc3C#N)c3ccccc23)C1=O [Example 167, (S)-N-((S)-8-cyano-1-((1-(2-cyanophenyl)-1H-indazol-3-yl)methyl)-5-(2-(methylsulfonyl)acetyl)-2-oxo-2,3,4,5-tetrahydro-1H-benzo[b][1,4]diazepin-3-yl)-2-(methylamino)propanamide hydrochloride] | > 54800 | 99.5
7 | CN[C@@H](C)C(=O)N[C@H]1CN(C(=O)CS(C)(=O)=O)c2ccc(C#N)cc2N(Cc2c(OC)ccc3c(Br)cccc23)C1=O [Example 175, (S)-N-((S)-1-((5-bromo-2-methoxynaphthalen-1-yl)methyl)-8-cyano-5-(2-(methylsulfonyl)acetyl)-2-oxo-2,3,4,5-tetrahydro-1H-benzo[b][1,4]diazepin-3-yl)-2-(methylamino)propanamide hydrochloride] | 17600 | 18.3
8 | CN[C@@H](C)C(=O)N[C@H]1CN(C(C)=O)c2cc(C#N)ccc2N(Cc2c(OC)ccc3c(Br)cccc23)C1=O [Example 179, (S)-N-((S)-5-acetyl-1-((5-bromo-2-methoxynaphthalen-1-yl)methyl)-7-cyano-2-oxo-2,3,4,5-tetrahydro-1H-benzo[b][1,4]diazepin-3-yl)-2-(methylamino)propanamide] | 33100 | 16.7

Continued, values first:

Row | IC50 (BIR3 domain of XIAP) [nM] | IC50 (BIR2 domain of XIAP) [nM] | Structure (SMILES)
9 | 16300 | 16.9 | CN[C@@H](C)C(=O)N[C@H]1CN(C(=O)c2ccncc2)c2cc(C#N)ccc2N(Cc2c(C3CC3)cnc3ccccc23)C1=O [Example 181]
10 | 27500 | 44.8 | CN[C@@H](C)C(=O)N[C@H]1CN(C(C)=O)c2cc(C(F)(F)F)ccc2N(Cc2c(C3CC3)cnc3ccccc23)C1=O [Example 183, (S)-N-((S)-5-acetyl-1-((3-cyclopropylquinolin-4-yl)methyl)-2-oxo-7-(trifluoromethyl)-2,3,4,5-tetrahydro-1H-benzo[b][1,4]diazepin-3-yl)-2-(methylamino)propanamide]
11 | 33200 | 60.1 | CN[C@@H](C)C(=O)N[C@H]1CN(C(=O)CCOC)c2cc(C(F)(F)F)ccc2N(Cc2c(C3CC3)cnc3ccccc23)C1=O [Example 185, (S)-N-((S)-1-((3-cyclopropylquinolin-4-yl)methyl)-5-(3-methoxypropanoyl)-2-oxo-7-(trifluoromcthyl)-2,3,4,5-tetrahydro-1H-benzo[b][1,4]diazepin-3-yl)-2-(methylamino)propanamide]
12 | 25900 | 25.6 | CN[C@@H](C)C(=O)N[C@H]1CN(C(=O)c2ccncc2)c2cc(C(F)(F)F)ccc2N(Cc2c(C3CC3)cnc3ccccc23)C1=O [Example 186, (S)-N-((S)-1-((3-cyclopropylquinolin-4-yl)methyl)-5-isonicolinoyl-2-oxo-7-(trifluoromethyl)-2,3,4,5-tetrahydro-1H-benzo[b][1,4]diazepin-3-yl)-2-(methylamino)propanamide]
13 | > 54800 | 240 | CN[C@@H](C)C(=O)N[C@@H]1C(=O)N(C(C(=O)Nc2c(F)cccc2F)c2ccccc2)c2ccccc2N(C(C)=O)[C@H]1C (stereo partly drawn) [Example 192, (2S)-N-((2S,3S)-1-acetyl-5-(2-(2,6-difluorophenylamino)-2-oxo-1-phenylethyl)-2-methyl-4-oxo-2,3,4,5-tetrahydro-1H-benzo[b][1,4]diazepin-3-yl)-2-(methylamino)propanamide hydrochloride]
